We go through one compound from patent EP1121436B1, “NON-DESENSITIZING AMPA-RECEPTORS” (Max-Planck-Gesellschaft zur Förderung der Wissenschaften …, priority 1998, dated 2000).

Sequences of proteins named here, by UniProt entry; tags and fusion partners are left off. A change or cut given only in a name is not applied to a line headed by its entry.
UniProt P19492: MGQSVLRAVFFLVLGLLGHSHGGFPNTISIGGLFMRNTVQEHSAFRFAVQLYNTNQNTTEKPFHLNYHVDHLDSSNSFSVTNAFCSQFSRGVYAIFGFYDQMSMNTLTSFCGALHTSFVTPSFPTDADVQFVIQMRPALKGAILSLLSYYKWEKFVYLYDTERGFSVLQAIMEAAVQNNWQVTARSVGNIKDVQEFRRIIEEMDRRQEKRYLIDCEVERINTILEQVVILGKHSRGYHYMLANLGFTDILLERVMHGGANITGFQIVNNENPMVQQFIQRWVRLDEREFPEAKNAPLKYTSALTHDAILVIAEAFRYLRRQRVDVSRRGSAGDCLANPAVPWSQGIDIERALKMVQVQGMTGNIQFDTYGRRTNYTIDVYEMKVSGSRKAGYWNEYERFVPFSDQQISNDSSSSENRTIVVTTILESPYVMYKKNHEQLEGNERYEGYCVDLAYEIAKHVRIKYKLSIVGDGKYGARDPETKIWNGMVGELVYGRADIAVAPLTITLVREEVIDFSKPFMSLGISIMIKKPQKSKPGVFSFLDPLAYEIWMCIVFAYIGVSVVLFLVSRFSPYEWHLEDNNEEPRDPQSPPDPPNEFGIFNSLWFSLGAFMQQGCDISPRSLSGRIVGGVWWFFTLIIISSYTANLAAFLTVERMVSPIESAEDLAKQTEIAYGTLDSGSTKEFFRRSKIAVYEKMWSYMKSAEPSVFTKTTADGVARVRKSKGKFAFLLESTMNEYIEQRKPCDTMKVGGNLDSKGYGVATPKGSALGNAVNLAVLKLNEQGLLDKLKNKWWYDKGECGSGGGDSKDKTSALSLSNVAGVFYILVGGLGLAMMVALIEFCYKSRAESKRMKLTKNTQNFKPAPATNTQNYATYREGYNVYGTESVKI
UniProt P42260: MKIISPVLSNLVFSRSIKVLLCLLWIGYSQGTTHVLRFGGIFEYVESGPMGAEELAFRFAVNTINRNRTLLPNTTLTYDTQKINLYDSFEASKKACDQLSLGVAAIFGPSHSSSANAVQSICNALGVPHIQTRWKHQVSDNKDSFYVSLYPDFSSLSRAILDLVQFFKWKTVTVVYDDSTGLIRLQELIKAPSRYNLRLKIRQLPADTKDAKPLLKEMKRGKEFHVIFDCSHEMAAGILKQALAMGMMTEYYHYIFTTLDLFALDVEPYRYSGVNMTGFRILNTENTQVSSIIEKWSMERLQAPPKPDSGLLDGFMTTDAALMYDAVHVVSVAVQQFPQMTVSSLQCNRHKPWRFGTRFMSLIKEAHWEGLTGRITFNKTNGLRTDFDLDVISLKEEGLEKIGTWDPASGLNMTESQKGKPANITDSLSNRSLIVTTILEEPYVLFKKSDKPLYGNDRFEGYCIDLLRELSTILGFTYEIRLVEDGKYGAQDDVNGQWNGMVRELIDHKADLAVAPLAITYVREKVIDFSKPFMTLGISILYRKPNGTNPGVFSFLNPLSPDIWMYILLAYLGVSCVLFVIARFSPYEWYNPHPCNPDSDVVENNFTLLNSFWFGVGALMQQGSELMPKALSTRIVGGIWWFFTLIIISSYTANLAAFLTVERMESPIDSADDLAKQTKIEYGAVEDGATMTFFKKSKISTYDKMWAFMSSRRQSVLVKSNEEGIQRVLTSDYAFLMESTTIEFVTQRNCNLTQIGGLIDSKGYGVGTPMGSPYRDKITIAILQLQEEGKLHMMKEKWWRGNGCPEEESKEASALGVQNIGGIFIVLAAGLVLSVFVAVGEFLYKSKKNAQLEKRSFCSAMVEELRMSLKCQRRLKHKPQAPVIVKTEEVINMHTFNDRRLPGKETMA

SMILES strings stand for the structures.

In this experiment the target is T1, R6TM1R3(Y521L) (Rattus norvegicus, UniProt P19492+P42260, A582S/A630S/C576V/C595R/D598Q/D600P/D669E/D672E/E603P/E625D/E665V/E681A/F612L/G615S/H593E/I581V/I639V/INS589HLED/INS599P/K629R/K679E/L568V/L569F/L572I/L608I/L609F/L619F/L626I/M627S/N596D/N605E/P592E/S624C/T607G/T633G/V580L/V601D/V602P/V616L/Y521L/Y566C/Y590N).
T1 construct: the entire extracellular N-terminal region of GluR3flip was substituted by the corresponding region of GluR6; expressed in transfected cells; host or cells: HEK293, transient
Kind of experiment: Responses to kainate and effect of cyclothiazide (outside-out patch). The experiment is classed as cell-based.

`C=C(C)[C@H]1CN[C@H](C(=O)O)[C@H]1CC(=O)O` [kainate] came in with a P/S of 2.71±0.2 and an RD of 155 ± 28 s⁻¹.
